Data reported in patent publication US6905839B2, “In vivo phenotyping for human cytochrome P450 3A activity” (priority 2002, dated 2005).

Assays:
[1] = test system: CYP3A; conditions: male, human, in vivo, 168 h
Method: (§1) The subject was not receiving any medication. […] Urine samples were obtained at a timed period (0-2, 2-4, 4-6, 6-8, 8-10, and 10-12) and the volume of the urine samples was noted. The recommended frequency of blood sampling is at least one time during a 2-hour urine collection. Urinary concentrations of cortisol and 6β-hydroxycortisol and plasma concentrations of cortisol were determined by HPLC and GC-MS, respectively. “The endogenous metabolic clearance (CLm(6β)-endo)” was calculated by Equation 4.
c) The fractional metabolic clearance for the 6β-hydroxylation of endogenous cortisol (CLm(6β)) is expressed as the amount of urinary excreted 6β-hydroxycortisol (X(6β)) divided by the area under the concentration-time curve of cortisol (AUC(F)); that is, CLm(6β)=X(6β)/AUC(F).

[2] = test system: CYP3A; experiment: Effect of clarithromycin on in vivo CYP3A activity by urinary 6β-hydroxycortisol/cortisol ratio (conventional index); set-up: species or system human; conditions: Subject D, clarithromycin days 1 to 6, FIG. 4
Method: as §1

- CLm(6β)-endo [1]: 2.56 mL/min
- inhibition of in vivo CYP3A activity by urinary 6β-hydroxycortisol/cortisol ratio as index [2]: could not be well evaluated
Compound: CC[C@H]1OC(=O)[C@H](C)[C@@H](O[C@H]2C[C@@](C)(OC)[C@@H](O)[C@H](C)O2)[C@H](C)[C@@H](O[C@@H]2O[C@H](C)C[C@H](N(C)C)[C@H]2O)[C@](C)(OC)C[C@@H](C)C(=O)[C@H](C)[C@@H](O)[C@]1(C)O [clarithromycin]
